By IC50 is commonly meant the concentration that gives 50% inhibition.

Results on one substance are retold here after US20240041827A1, “COMPOSITIONS FOR THE TREATMENT OF FAT RELATED CONDITIONS AND DISORDERS” (priority 2020, published 2024).

The subject of the series is human visceral preadipocytes. As to conditions: read-out: cytotoxic IC50; each compound alone. As to the method:
Human visceral preadipocytes were seeded in 96-well white clear bottom plates at 10,000 cells per well in 100 μl pre-adipocyte medium and incubated overnight at 37° C. 5% CO2. On the following day, adipogenic differentiation was induced by addition of 100 μl/well differentiation medium and incubation continued for 5 days. Adipogenic differentiation was verified by microscopic evaluation, addition of adipored reagents and fluorescent measurement at Ex485 nm/Em572 nm. […] Staurosporine (1 μM) and 0.2% DMSO were used as controls. Plates were incubated at 37° C. 5% CO2 for 2, 6 and 24 hours. Following incubation, cytotoxicity was measured using Cell Titer Glo 2.0 (Promega).
Test Item RZL-12 (1-300 μM) was prepared on the day of the testing as 150 mM stock solutions in DMSO. […]
Human visceral pre-adipocytes (HPrAD-vis): HPrAD-vis cells (Lonza cat #PT-5005) were thawed at 37° C. and transferred into 50 ml tubes containing pre-adipocytes PGM-2 growth medium (PBM-2, 10% FBS, 1-glutamine, GA-1000). […] After resuspension, cells were counted and seeded in T-75 and T25 flasks at a density of 9,000 cells/cm^2 ([…], 225,000 cells/T25 flask). […]
Cells were sub-cultured only once, as soon as they reached 70% confluence. […] Cells were then counted using a haemacytometer slide after being diluted 1:2 in trypan blue (SIGMA). […]

Take Collagenase: the half-maximal inhibitory concentration (IC50) worked out at 300 nM.
